Measurements published in patent US20250101490A1, “METHOD FOR SCREENING ACETYLCHOLINESTERASE INHIBITOR” (published 2025).

Chains of the proteins cited; added tags and fusions are not shown. Residues count along the entry.
UniProt P20309, whole entry, looked up: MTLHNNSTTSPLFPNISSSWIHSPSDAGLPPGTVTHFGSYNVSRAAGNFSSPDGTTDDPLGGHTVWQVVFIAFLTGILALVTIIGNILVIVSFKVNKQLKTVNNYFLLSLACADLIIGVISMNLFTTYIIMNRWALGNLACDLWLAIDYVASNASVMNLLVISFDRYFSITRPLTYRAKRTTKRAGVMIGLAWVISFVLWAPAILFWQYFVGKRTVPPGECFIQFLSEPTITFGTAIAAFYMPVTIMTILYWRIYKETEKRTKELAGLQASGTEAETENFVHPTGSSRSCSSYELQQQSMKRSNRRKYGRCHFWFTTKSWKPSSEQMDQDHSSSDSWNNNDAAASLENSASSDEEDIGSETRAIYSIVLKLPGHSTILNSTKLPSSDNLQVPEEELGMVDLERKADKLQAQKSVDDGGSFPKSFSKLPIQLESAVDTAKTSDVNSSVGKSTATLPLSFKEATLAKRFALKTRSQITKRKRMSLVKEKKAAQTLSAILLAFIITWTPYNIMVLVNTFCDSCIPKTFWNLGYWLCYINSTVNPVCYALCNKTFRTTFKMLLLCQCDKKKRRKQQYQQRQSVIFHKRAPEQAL
UniProt P22303, 32-614 limits assumed: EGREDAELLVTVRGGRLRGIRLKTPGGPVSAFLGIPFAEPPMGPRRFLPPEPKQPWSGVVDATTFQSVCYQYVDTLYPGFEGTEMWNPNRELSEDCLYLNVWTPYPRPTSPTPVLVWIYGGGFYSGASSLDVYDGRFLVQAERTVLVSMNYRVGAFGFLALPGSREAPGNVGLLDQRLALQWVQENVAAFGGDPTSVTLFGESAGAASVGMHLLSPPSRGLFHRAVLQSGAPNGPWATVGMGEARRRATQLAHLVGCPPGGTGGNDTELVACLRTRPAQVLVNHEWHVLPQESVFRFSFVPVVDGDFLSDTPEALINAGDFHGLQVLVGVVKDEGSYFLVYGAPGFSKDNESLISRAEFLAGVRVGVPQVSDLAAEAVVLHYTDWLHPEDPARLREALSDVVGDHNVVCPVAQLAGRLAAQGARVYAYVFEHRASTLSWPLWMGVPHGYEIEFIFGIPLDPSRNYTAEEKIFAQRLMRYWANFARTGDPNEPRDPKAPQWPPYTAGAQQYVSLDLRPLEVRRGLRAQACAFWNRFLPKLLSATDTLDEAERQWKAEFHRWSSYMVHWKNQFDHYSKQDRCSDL

Tests used:
[1] = biological target: human muscarinic M3 receptor (Homo sapiens, UniProt P20309)
[2] = biological target: recombinant human acetylcholinesterase (rhAChE) (Homo sapiens, UniProt P22303)
[3] = test system: M3:NFATc1-EGFP U2OS human osteosarcoma cells

SMILES: CC(=O)OCC[N+](C)(C)C.[I-]
- concentration at which the cells appeared an activation reaction [1]: 0.3 nM
- concentration at which the maximum degree of nuclear translocation of EGFP-NFATc1 was reached [1]: 30 nM
- degree of nuclear translocation of EGFP-NFATc1 relative to the maximum degree ([1]; AChI 1 nM): approximately 40%

SMILES: CCOP(=S)(OCC)Oc1nc(Cl)c(Cl)cc1Cl
- lowest detection concentration ([2]; 0.01 U/mL rhAChE, 30 nM ACh, 10 min): 3 µM
- IC50 ([2]; read-out: IC50 against rhAChE, AChEI preincubated with rhAChE 37° C. 30 min, AChI 10 min, cells 20 min): 13.3 µM

SMILES: COc1cc2c(cc1OC)C(=O)C(CC1CCN(Cc3ccccc3)CC1)C2 (centres unmarked)
- expression level of cell actin ([3]; FIG. 7 A and B, concentration-dependent): increased expression level of cell actin
- nuclear area ([3]; FIG. 7 A and C): increased nuclear area
- tubulin distribution in cells ([3]; FIG. 7 A, as concentration increased): increased tubulin distribution in a concentration-dependent manner
